From patent US9133449B2, “Mutant pyrrolysyl-tRNA synthetase, and method for production of protein having non-natural amino acid integrated therein by using the same” (priority 2007, dated 2015) come the findings set out here.

Protein sequences, listed by entry. Tags and fused reporters are not part of them.
UniProt Q8PWY1, whole entry E444G: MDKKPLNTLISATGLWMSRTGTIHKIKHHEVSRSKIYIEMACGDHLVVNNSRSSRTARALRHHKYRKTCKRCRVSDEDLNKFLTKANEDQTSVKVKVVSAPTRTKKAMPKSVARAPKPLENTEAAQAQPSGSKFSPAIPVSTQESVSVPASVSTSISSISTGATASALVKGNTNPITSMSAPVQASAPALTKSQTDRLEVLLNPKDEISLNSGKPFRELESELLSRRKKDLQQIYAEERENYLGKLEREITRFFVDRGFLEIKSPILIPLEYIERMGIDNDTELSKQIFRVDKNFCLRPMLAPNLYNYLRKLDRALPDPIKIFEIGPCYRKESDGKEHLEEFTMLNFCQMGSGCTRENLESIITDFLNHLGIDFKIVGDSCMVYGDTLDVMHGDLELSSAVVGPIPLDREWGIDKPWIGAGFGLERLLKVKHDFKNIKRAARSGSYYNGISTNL

For the assay, the target named is M. mazei PylRS (wild-type) (Methanosarcina mazei, UniProt Q8PWY1). The assay can be described thus: Aminoacylation assay of amino acids with wild-type PylRS (acid-urea PAGE). Format: biochemical. The conditions noted are these: 37 degrees Celsius 1 h; 0.5 M Lys; 100 mM Ac-Lys; 1 mM Boc-Lys; 1 mM Aloc-Lys; 10 mM Nic-Lys; 7 mM Nma-Lys; 3.5 mM Z-Lys; 1 mM pyrrolysine.

On to `NCCCC[C@H](N)C(=O)O`, for which the “activation of amino acid / esterification of tRNA^Pyl by wild-type PylRS” value is on record as “cannot activate”.

On to NE-nicotinoyl-L-lysine, for which the “activation of amino acid / esterification of tRNA^Pyl by wild-type PylRS” value is “esterified”.
